Data: PMC7822067, “Pyridinium-2-carbaldoximes with quinolinium carboxamide moiety are simultaneous reactivators of acetylcholinesterase and butyrylcholinesterase inhibited by nerve agent surrogates” (2021)

Assays:
hrAChE inhibited by NEMP = hrAChE inhibited by NEMP (Homo sapiens, UniProt P22303); assay: Reactivation screening of NEMP-inhibited hrAChE; settings: 15 min
hrAChE inhibited by NIMP = hrAChE inhibited by NIMP (Homo sapiens, UniProt P22303); assay: Reactivation screening of NIMP-inhibited hrAChE; settings: 15 min
[1] = target: hrAChE inhibited by NEDPA (Homo sapiens, UniProt P22303); assay: Reactivation screening of NEDPA-inhibited hrAChE; settings: 15 min
hrAChE inhibited by POX = hrAChE inhibited by POX (Homo sapiens, UniProt P22303); assay: Reactivation screening of POX-inhibited hrAChE; settings: 15 min
NEDPA-hrAChE = NEDPA-hrAChE (Homo sapiens, UniProt P22303); assay: Reactivation kinetics of NEDPA-hrAChE
NIMP-hrAChE = NIMP-hrAChE (Homo sapiens, UniProt P22303); assay: Reactivation kinetics of NIMP-hrAChE
NEMP-hrAChE = NEMP-hrAChE (Homo sapiens, UniProt P22303); assay: Reactivation kinetics of NEMP-hrAChE
POX-hrAChE = POX-hrAChE (Homo sapiens, UniProt P22303); assay: Reactivation kinetics of POX-hrAChE
[2] = read-out: KD (phosphylated enzyme-oxime dissociation constant)

| Structure (SMILES) | hrAChE reactivation (%) NEMP ± SD (hrAChE inhibited by NEMP; oxime 10 µM) | hrAChE reactivation (%) NEMP ± SD (hrAChE inhibited by NEMP; oxime 100 µM) | hrAChE reactivation (%) NIMP ± SD (hrAChE inhibited by NIMP; oxime 10 µM) | hrAChE reactivation (%) NIMP ± SD (hrAChE inhibited by NIMP; oxime 100 µM) | hrAChE reactivation (%) NEDPA ± SD ([1]; oxime 10 µM) | hrAChE reactivation (%) NEDPA ± SD ([1]; oxime 100 µM) | hrAChE reactivation (%) POX ± SD (hrAChE inhibited by POX; oxime 10 µM) | hrAChE reactivation (%) POX ± SD (hrAChE inhibited by POX; oxime 100 µM) | Kd (NEDPA-hrAChE; [2]) | Kd (NIMP-hrAChE; [2]) | Kd (NEMP-hrAChE; [2]) | Kd (POX-hrAChE; [2]) | kr2 (second-order reactivation rate constant, kr2=kr/KD) (NEDPA-hrAChE) | kr (first-order reactivation rate constant) (NEDPA-hrAChE) | kr2 (second-order reactivation rate constant, kr2=kr/KD) (NIMP-hrAChE) | kr (first-order reactivation rate constant) (NIMP-hrAChE) | kr2 (second-order reactivation rate constant, kr2=kr/KD) (NEMP-hrAChE) | kr (first-order reactivation rate constant) (NEMP-hrAChE) | kr2 (second-order reactivation rate constant, kr2=kr/KD) (POX-hrAChE) | kr (first-order reactivation rate constant) (POX-hrAChE) |
| --- | --- | --- | --- | --- | --- | --- | --- | --- | --- | --- | --- | --- | --- | --- | --- | --- | --- | --- | --- | --- |
| NC(=O)c1ccc2ccc[n+](CCCCC[n+]3ccccc3C=NO)c2c1.[Br-].[Br-] | 0.7 ± 0.6% | 1.4 ± 0.1% | 1.4 ± 0.1% | 1.6 ± 0.1% | 1.5 ± 0.5% | 1.7 ± 0.4% | 2.3 ± 0.5% | 3.0 ± 1.1% | – | – | – | – | – | – | – | – | – | – | – | – |
| NC(=O)c1cc[n+](CCCCC[n+]2ccccc2C=NO)c2ccccc12 | – | – | – | – | – | – | – | – | 33.5 µM | 8.65 µM | 10.6 µM | 7.86 µM | – | – | – | – | – | – | – | – |
| NC(=O)c1cc[n+](CCCCC[n+]2ccccc2C=NO)c2ccccc12.[Br-].[Br-] | 6.2 ± 0.1% | 10.0 ± 0.6% | 14.3 ± 1.0% | 15.8 ± 0.2% | 21.4 ± 1.2% | 13.9 ± 1.0% | 23.2 ± 1.1% | 21.0 ± 2.74% | – | – | – | – | 14.50 mM^–1 min^–1 | 0.486 min^–1 | 24.95 mM^–1 min^–1 | 0.216 min^–1 | 29.59 mM^–1 min^–1 | 0.313 min^–1 | 72.48 mM^–1 min^–1 | 0.567 min^–1 |
| NC(=O)c1cccc2c1ccc[n+]2CCCCC[n+]1ccccc1C=NO.[Br-].[Br-] | 1.7 ± 0.6% | 1.7 ± 0.2% | 3.6 ± 0.3% | 4.5 ± 0.1% | 4.0 ± 0.2% | 2.4 ± 0.2% | 6.9 ± 0.9% | 5.6 ± 1.0% | – | – | – | – | – | – | – | – | – | – | – | – |
| NC(=O)c1cc2ccccc2[n+](CCCCC[n+]2ccccc2C=NO)c1.[Br-].[Br-] | 4.3 ± 0.2% | 5.0 ± 0.2% | 7.3 ± 0.77% | 6.1 ± 0.1% | 9.0 ± 0.7% | 5.9 ± 0.3% | 12.4 ± 1.0% | 7.3 ± 0.7% | – | – | – | – | – | – | – | – | – | – | – | – |
| NC(=O)c1ccc2c(ccc[n+]2CCCCC[n+]2ccccc2C=NO)c1.[Br-].[Br-] | 8.2 ± 0.8% | 5.3 ± 0.4% | 9.9 ± 1.2% | 8.0 ± 0.7% | 9.3 ± 1.1% | 4.7 ± 0.2% | 9.8 ± 1.3% | 4.7 ± 0.7% | – | – | – | – | – | – | – | – | – | – | – | – |
